In US9278137B2, “Polymeric conjugates of active principles, their process of preparation and their polymeric intermediates” (SANOFI, priority 2010, dated 2016):

How the values were obtained:
[1] = nanoparticles in deionized water, dispersion diluted ten fold
[2] = Nanoparticle size (hydrodynamic diameter) by dynamic light scattering (DLS)
[3] = Nanoparticle size by Malvern Nanosizer (Quasi Elastic Light Scattering)
[4] = nanodispersion with Solutol HS15 and sodium deoxycholate, before evaporation

Substance: mPEG2000-PLA14000-Y-succinyl-2′-cabazitaxel [VIII]
- mean diameter (TEM) [1]: 27 nm
- mean diameter (DLS) ([2]; 5 mg/ml conjugate in deionized water, sample filtered (1,2 μm)): 62 nm
- size distribution over time (DLS) ([2]; for 3 weeks (T 0 vs T+3 weeks)): remained unchanged

Substance: mPEG2000-PLA10000-Y-succinyl-2′-cabazitaxel [VIII′]
- average size ([3]; after evaporation, all concentrations between 10 and 200 mg/g): 30 nm
- size of the nanoparticles ([3]; after evaporation, final nanodispersion concentration between 10 and 200 mg/g): ≤ 100 nm
- PDI [3, 4]: 0.14
- average size [3, 4]: 30 nm
- size of nanoparticles [3, 4]: ≤ 100 nm
- Mean diameter (using DLS) ([2]; nanodispersion 10 mg/mL in WFI): 43 nm
- PDI (DLS) ([2]; nanodispersion 10 mg/mL in WFI): 0.14
